Earlier results as cited in article PMC10955127 (Frontiers in Pharmacology, 2024).

Details: highest dose tested; in vivo 2019-2020, KS1; cited from earlier work

In the case of `O=C(OCc1ccccc1)c1ccccc1O` [BSal, benzyl salicylate], the “Developmental Toxicity NOAEL” value is given as “NOAEL 158-324 mg/kg bw (highest dose tested)” and the “Reproductive toxicity NOAEL” value is given as “NOAEL 158-324 mg/kg bw (highest dose tested)”.
